# Earlier results as cited in patent US6627664B2, “Perylenequinones for use as sonosensitizers” (Altachem Pharma Ltd., priority 2001, dated 2003).
# Test system: cell lines
# Conditions: tone-burst and pulsed ultrasound; cited from earlier work
smiles,measurement,value
COc1cccc2c1C(=O)c1c(O)c3c(c(O)c1C2=O)C[C@@](O)(C(=O)CO)C[C@@H]3O[C@H]1C[C@H](N)[C@H](O)[C@H](C)O1 [doxorubicin],effect in combination with ultrasound on cytotoxicity,synergistic effects
